Molecular target: Cbl-b protein (CBL-B, GST-Tag) (Homo sapiens (Human), UniProt Q13191)
Test: HTRF based binding assay, affinity to Cbl-b protein
Settings: fluorescence labeled Cbl-b binding probe

Sequences of proteins named here, by UniProt entry; tags and fusion partners are left off.
UniProt Q13191, whole entry: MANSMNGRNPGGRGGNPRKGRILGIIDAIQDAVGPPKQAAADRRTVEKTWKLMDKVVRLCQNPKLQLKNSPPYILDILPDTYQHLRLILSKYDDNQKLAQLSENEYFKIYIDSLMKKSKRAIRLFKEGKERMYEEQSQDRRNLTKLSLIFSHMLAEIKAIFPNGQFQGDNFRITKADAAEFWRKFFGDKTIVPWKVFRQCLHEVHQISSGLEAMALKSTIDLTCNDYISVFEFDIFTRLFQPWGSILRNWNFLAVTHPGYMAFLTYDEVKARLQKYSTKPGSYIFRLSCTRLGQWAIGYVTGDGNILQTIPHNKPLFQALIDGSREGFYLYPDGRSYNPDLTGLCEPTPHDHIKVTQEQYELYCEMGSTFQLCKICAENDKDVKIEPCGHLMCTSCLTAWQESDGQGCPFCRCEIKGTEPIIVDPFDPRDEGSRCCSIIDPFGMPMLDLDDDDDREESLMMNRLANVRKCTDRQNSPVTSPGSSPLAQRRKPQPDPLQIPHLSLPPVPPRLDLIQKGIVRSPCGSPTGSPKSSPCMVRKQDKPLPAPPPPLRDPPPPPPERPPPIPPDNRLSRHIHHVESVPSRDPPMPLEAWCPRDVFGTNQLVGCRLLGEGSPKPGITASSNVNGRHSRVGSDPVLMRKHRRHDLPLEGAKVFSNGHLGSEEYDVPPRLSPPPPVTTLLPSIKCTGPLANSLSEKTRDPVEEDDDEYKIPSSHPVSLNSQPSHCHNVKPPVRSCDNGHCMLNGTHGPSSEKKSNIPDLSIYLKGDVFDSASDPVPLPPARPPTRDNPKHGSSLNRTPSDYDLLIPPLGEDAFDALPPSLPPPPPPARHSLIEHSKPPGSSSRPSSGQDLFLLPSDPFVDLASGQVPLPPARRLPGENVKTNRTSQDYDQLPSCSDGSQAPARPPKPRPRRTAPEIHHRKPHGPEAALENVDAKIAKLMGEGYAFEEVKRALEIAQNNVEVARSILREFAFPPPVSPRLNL

| Compound | IC50 [nM] |
| --- | --- |
| CC1CC(c2cc(OCF)nc(-n3cnc4c(C(F)(F)F)cc(C(C)N5CCC[C@H](C)C5)cc4c3=O)c2)(c2nncn2C)C1 (some centres unmarked) | < 20 |
| CC1CC(c2cccc(N3NCc4c(cc(CN5CCC[C@H](C)C5)cc4C(F)(F)F)C3=O)c2)(c2nncn2C)C1 (some centres unmarked) | 50 to 500 |
